The numbers were not newly measured in US12084487B2, “Nanoparticles having molecules that bind or block PD-L1 and uses in treating cancer” (Emory University, priority 2016, dated 2024), which cites them from elsewhere.

Sequences of proteins named here, by UniProt entry; tags and fusion partners are left off. Residues count along the entry.
UniProt Q9NZQ7, 19-290: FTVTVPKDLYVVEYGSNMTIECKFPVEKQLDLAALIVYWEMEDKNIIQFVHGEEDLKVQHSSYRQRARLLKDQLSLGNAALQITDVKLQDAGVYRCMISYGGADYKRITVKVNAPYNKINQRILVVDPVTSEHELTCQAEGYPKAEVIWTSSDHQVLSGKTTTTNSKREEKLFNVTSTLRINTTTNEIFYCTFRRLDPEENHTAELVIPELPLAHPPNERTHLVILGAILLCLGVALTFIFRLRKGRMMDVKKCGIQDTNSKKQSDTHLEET

For this series, the target named is PD-L1 (Homo sapiens, UniProt Q9NZQ7). Particulars: read-out: binding affinity to PD-L1; cited from earlier work.

With “native PD-1: native programmed death-1 protein”, the Kd is ~8.5 µM.
